From ChEMBL document CHEMBL3585305, “Structure-Based Design and Optimization of Multitarget-Directed 2H-Chromen-2-one Derivatives as Potent Inhibitors of Monoamine Oxidase B and Cholinesterases” (J Med Chem, 2015)

The chains behind the UniProt entries cited, without tags or fusion partners.
UniProt P21397, whole entry: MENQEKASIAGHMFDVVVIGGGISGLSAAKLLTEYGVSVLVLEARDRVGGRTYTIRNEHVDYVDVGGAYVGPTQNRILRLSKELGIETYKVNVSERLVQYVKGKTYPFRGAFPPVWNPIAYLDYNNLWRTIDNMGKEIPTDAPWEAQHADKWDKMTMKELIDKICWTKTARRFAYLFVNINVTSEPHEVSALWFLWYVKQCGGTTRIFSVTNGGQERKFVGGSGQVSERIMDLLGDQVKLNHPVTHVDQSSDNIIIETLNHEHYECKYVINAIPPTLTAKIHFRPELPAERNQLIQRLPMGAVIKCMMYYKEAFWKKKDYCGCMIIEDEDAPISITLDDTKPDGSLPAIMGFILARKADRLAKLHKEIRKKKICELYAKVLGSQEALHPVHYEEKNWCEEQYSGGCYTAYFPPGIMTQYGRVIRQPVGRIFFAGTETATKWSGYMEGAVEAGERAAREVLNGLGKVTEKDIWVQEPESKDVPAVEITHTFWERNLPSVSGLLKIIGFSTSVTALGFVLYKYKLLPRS

Molecular target: Amine oxidase [flavin-containing] A (Homo sapiens, UniProt P21397)
Experiment: Inhibition of human recombinant MAO-A using kynuramine substrate by spectrophotometric assay

C#CCN(C)Cc1ccccc1 [PARGYLINE]
IC50: 4.1 µM
